# Measured values taken from PubChem BioAssay AID1850 (Southern Research Specialized Biocontainment Screening …, 2009).
# The list shows a part of the results, in another mix than the full data. Potency and affinity values are given separately. Some results for these compounds are left out of this collection, so the calls shown say nothing about other tests. Activity calls are given as the source filed them. How the calls were made is not given here.
# Assay: PhoP regulon inhibitors, Salmonella typhi PhoP promoter GFP reporter, confirmatory (AID 1850);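 further: 0% = induced wells with vehicle and 100% = uninduced wells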
# Details: fluorescence, 4 h, at 50 µM, stronger effect = higher value
row,SMILES,inhibition
1,O=C(OC1CN2CCC1CC2)C(CO)(c1ccccc1)c1ccccc1 (stereo not drawn),inactive: 0.69%
2,COc1ccc(Br)c(C(=O)NCC2(N3CCCCC3)CCCCC2)c1,inactive: 8.48%
3,CN(C)c1cccc(C(=O)NCC2(N(C)C)CCCCC2)c1,inactive: -1.2%
4,CC(C)Oc1ccc(C(=O)NCC2(N(C)C)CCCCC2)cc1,inactive: 3.31%
5,CN(C)C1(CNC(=O)c2ccc(Br)cc2)CCCCC1,inactive: -4.79%
6,COc1cc(C(=O)NCC2(N(C)C)CCCCC2)c([N+](=O)[O-])cc1OC,inactive: -7.63%
7,COc1cccc(C(=O)NCC2(N3CCCCC3)CCCCC2)c1,inactive: 12%
8,COc1ccc(Cl)cc1C(=O)NCC1(N(C)C)CCCCC1,inactive: -1.5%
9,O=C(NCC1(N2CCCCC2)CCCCC1)c1cccc(Cl)c1,inactive: 7.89%
10,Cc1ccccc1C(=O)NCC1(N2CCCCC2)CCCCC1,inactive: -1.4%
11,CN(C)c1ccc(C(=O)NCC2(N(C)C)CCCCC2)cc1,inactive: 2.45%
12,CN(C)C1CCCC1OC(=O)C(O)(c1ccccc1)c1ccccc1 (stereo not drawn),inactive: 5.09%
13,C=CCN1CCN(CCOC(=O)C(O)(c2ccccc2)c2ccccc2)CC1,inactive: 3.28%
14,O=C(NCC1(N2CCCCC2)CCCCC1)c1cc(F)c(F)cc1Cl,inactive: 4.28%
15,CCN1CCCC(OC(=O)C2(O)c3ccccc3C=Cc3ccccc32)C1 (stereo not drawn),inactive: 5.29%
16,Cc1cc(C(=O)NCC2(N3CCCCC3)CCCCC2)ccc1[N+](=O)[O-],inactive: -4.87%
17,O=C(NCC1(N2CCCCC2)CCCCC1)c1cccc(Br)c1,inactive: 1.53%
18,O=C(NCC1(N2CCCCC2)CCCCC1)c1cc([N+](=O)[O-])ccc1Cl,inactive: -7.58%
19,CN1[C@@H]2CC[C@H]1CC(OC(=O)C(O)(c1ccccc1)c1ccccc1)C2 (stereo partly drawn),inactive: -0.85%
20,CC(C)N1C(=O)CC2(CCN(CCOC(=O)C(O)(c3ccccc3)c3ccccc3)CC2)C1=O,inactive: 11.8%
21,CCN(CC)CC(C)C(C)OC(=O)C(O)(c1ccccc1)c1ccccc1 (stereo not drawn),inactive: -3.21%
22,COc1cc(SC)ccc1C(=O)NCC1(N(C)C)CCCCC1,inactive: -7.38%
23,Cc1ccc(C(=O)NCC2(N3CCCCC3)CCCCC2)cc1,inactive: -0.08%
